Consider 2 molecules from ChEMBL document CHEMBL3098045 (Bioorg Med Chem, 2014).

The chains behind the UniProt entries cited, without tags or fusion partners.
UniProt P14416, whole entry: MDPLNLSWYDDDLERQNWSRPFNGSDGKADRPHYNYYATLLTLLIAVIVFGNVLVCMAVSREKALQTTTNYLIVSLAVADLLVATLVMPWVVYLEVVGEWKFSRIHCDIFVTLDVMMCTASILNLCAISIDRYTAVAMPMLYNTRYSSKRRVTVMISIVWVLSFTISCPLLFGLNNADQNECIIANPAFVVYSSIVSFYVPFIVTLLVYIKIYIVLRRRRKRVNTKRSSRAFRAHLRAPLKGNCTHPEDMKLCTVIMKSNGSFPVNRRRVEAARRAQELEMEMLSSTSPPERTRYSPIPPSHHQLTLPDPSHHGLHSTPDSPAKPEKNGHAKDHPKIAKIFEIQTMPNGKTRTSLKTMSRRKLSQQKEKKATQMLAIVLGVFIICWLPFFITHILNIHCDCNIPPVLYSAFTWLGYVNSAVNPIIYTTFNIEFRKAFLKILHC

This test has as its target D(2) dopamine receptor (Homo sapiens, UniProt P14416). In words: Agonist activity at human dopamine D2 receptor expressed in CHO cells assessed as inhibition of forskolin-induced cAMP production after 20 mins relative to dopamine. (Cyclic AMP is a second messenger, typically raised through Gs and lowered through Gi signalling.)

Structures are written as SMILES.

As for `Cl.Oc1cccc2c1C[C@H]1OCCN(CC3CC3)[C@@H]1C2`, the Efficacy came to 99%.

Regarding `Oc1cccc2c1C[C@@H]1OCCN(CC3CC3)[C@H]1C2`, the Efficacy was determined as 90%.
